Laboratory results published in PMC9706563, “Development of Macrocyclic PRMT5–Adaptor Protein Interaction Inhibitors” (Journal of Medicinal Chemistry, 2022).

Amino acid sequences for entries named in this document (tags omitted).
UniProt O14744, whole entry: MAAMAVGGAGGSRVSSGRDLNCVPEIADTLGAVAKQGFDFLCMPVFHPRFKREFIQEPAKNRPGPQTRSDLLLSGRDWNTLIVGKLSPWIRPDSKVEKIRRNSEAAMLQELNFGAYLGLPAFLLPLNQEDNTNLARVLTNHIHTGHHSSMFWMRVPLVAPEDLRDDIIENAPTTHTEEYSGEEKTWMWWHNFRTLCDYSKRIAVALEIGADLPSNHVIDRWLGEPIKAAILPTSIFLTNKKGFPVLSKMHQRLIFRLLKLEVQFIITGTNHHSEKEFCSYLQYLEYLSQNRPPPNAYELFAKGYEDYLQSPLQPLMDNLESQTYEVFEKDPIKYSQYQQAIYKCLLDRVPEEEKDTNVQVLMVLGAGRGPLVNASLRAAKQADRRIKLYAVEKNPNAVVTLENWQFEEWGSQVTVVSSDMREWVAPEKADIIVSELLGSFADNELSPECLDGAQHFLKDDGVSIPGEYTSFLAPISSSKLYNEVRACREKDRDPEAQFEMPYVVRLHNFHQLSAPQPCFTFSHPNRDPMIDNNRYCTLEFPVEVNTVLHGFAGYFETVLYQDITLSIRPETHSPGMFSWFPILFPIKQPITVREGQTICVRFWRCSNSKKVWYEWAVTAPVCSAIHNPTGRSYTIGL

Target: T1, PRMT5-MEP50 (Homo sapiens, UniProt O14744)
T1 construct: The compounds were tested by means of FP with the full-length PRMT5-MEP50 complex; made in house
Test: Direct binding fluorescence polarization (FP) assay of FITC-labeled peptides
Conditions: supplementary CSV

For `CC(=O)N[C@H](C(=O)N1CCC[C@H]1C(=O)N[C@@H]1CC=CCC[C@@H](C(=O)N[C@@H](CC(=O)O)C(=O)N[C@@H](C)C(=O)N[C@@H](CC(=O)O)C(=O)N[C@@H](CCCCNC(=S)Nc2ccc3c(c2)C(=O)OC32c3ccc(O)cc3Oc3cc(O)ccc32)C(N)=O)NC(=O)[C@H](Cc2ccccc2)NC(=O)[C@H](CCC(N)=O)NC1=O)C(C)C` (single isomer, unassigned) [18 (isomer 2)], the Kd was 1.68 ± 0.92 µM.
